Patent US9296745B2, “Diacylglycerol acyltransferase 2 inhibitors” (Pfizer Inc., priority 2012, dated 2016)

Protein sequences, listed by entry. Tags and fused reporters are not part of them.
UniProt Q96PD7, whole entry: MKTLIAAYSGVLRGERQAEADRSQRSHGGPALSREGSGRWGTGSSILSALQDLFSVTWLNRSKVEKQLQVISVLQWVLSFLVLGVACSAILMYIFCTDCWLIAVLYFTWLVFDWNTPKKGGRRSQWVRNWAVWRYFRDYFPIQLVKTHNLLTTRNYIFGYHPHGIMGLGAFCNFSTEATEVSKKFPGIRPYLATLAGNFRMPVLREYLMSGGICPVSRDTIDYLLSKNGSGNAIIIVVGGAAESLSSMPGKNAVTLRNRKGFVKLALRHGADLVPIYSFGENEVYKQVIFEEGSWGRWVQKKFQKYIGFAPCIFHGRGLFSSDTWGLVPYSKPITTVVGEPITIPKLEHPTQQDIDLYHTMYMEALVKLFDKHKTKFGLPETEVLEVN

Biological target: Human DGAT2 (hDGAT2) (Homo sapiens (Human), UniProt Q96PD7)
Experiment: In vitro DGAT2 assay, IC50 determination with hDGAT2 membrane fraction
Format: biochemical
Conditions: read-out: DGAT2 IC50; geometric mean; background for complete inhibition of DGAT2 obtained with 50 μM (1R,2R)-2-({3′-Fluoro-4′-[(6-fluoro-1,3-benzothiazol-2-yl)amino]-1,1′-biphenyl-4-yl}carbonyl)cyclopentanecarboxylic acid

IC50: 187 nM
Compound: O=C([C@@H]1CCCN(c2ccc3nc(-c4ccnc(C(F)(F)F)n4)[nH]c3n2)C1)N1CCCC1
